Molecules are shown by their SMILES. Only a part is listed here, and it is no random draw. Activity calls are given as the source filed them. Cut-off read from the data, not from the text of the source: active = activation above about 40%; inactive = the rest.

By UniProt entry, the sequences of proteins in these tests, tags left out. Where a name states a change or a piece, a line headed by the entry shows the natural chain unless it says otherwise.
UniProt P16066: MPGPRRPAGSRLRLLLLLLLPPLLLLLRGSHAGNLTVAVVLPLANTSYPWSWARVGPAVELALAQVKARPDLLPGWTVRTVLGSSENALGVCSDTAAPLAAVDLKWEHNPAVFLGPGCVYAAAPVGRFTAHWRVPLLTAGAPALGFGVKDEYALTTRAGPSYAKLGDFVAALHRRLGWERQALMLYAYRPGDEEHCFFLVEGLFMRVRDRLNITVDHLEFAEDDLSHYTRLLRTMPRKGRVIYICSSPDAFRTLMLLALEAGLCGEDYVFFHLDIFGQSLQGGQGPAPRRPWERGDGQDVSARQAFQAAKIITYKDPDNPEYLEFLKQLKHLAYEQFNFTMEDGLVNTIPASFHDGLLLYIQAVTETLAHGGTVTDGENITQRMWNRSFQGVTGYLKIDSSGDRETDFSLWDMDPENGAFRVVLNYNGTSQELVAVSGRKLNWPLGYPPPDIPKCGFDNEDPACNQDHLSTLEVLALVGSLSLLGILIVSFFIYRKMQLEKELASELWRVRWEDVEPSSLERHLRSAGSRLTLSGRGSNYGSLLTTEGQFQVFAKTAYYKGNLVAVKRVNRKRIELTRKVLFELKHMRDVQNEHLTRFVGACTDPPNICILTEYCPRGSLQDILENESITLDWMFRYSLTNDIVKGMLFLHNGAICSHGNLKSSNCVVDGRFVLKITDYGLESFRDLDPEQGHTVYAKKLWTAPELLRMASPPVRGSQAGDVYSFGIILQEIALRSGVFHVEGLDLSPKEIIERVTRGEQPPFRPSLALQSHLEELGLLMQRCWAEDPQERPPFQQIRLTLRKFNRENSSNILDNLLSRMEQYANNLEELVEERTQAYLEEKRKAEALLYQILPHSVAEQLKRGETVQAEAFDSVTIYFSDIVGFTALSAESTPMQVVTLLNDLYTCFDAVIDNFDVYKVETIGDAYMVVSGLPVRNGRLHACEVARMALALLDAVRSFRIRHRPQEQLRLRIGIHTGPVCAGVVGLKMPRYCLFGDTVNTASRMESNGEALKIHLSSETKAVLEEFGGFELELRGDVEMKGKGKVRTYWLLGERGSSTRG

The text below walks through data of PubChem BioAssay AID1671463 (Sanford-Burnham Center for Chemical Genomics, 2021).

This assay concerns the target Atrial natriuretic peptide receptor 1 (Homo sapiens) (UniProt P16066). The assay can be described thus: GC-A stimulated cGMP production enhancers – HEK293 GC-A cells, cGMP TR-FRET, EC30 ANP, primary screen (AID 1671463). The conditions noted are these: at 10 µM, hits give high values, 0% at EC30 ANP, 100% saturating ANP. Background: Time-resolved FRET reads energy transfer from a long-lived donor to a nearby acceptor.
For `N#CCCN(C(=O)COC(=O)C(O)(c1ccccc1)c1ccccc1)c1ccc(F)cc1`, the activation is inactive: -3.56%.

Consider `CN(C(=O)Cc1ccccc1)[C@@H]1CC[C@]2(CCCO2)C[C@H]1N1CCCC1`, for which the activation was inactive: 4.53%.

For `CCOP1(=S)c2c(C)nn(CCC#N)c2N=C(c2ccc(F)cc2)N1C` (stereo not drawn), the activation is inactive: 4.81%.

Consider `CN(C)C(=O)c1cc([N+](=O)[O-])cc2c1-c1c(cc([N+](=O)[O-])cc1[N+](=O)[O-])C2=O`, for which the activation is inactive: -19.9%.

In the case of `O=[N+]([O-])c1ccc2c(c1)nnn2O`, the activation is inactive: 2.75%.

In the case of `CN(C(=O)Cc1ccc(Cl)c(Cl)c1)[C@H]1CC[C@@]2(CCCO2)C[C@@H]1N1CCCC1`, the activation was inactive: 2.84%.

In the case of `NC(=O)Nc1ccc([As](=O)(O)O)cc1`, the activation was inactive: -0.19%.

With `CN(C)C1(CNC(=O)c2ccc(S(C)(=O)=O)cc2)CCCCC1`, the activation is inactive: -1.33%.

In the case of `O=C(/C=C/c1ccccc1)OC1CN2CCC1CC2` (stereo not drawn), the activation was inactive: -3.43%.

As to `CCCC1OP(=O)(Nc2ccccc2)OCC1CC` (stereo not drawn), the activation was inactive: 1.66%.

On to `Cc1nn(-c2ccccc2)c2c1P(=O)(N1CCOCC1)N(C)C(c1ccccc1)=N2` (stereo not drawn), for which the activation was inactive: -5.03%.

With `Cc1ccc(C(=O)OC2CN3CCC2CC3)cc1` (stereo not drawn), the activation is inactive: 0.01%.

`CC1CCC(C(C)C)C(OP(=O)(Nc2ccccn2)c2ccccc2)C1` (stereo not drawn): the activation is inactive: -24.1%.

In the case of `Nc1cccc([As](=O)(O)c2ccccc2)c1`, the activation is inactive: 3.02%.

Regarding `NS(=O)(=O)c1cccc(NC(=O)COC(=O)C(O)(c2ccccc2)c2ccccc2)c1`, the activation was inactive: -5.35%.

Consider `O=P1(Nc2ccc(Br)cn2)COc2ccccc2OC1`, for which the activation was inactive: 5.6%.

In the case of `O=[As](O)(c1cccs1)c1cccs1`, the activation is inactive: 4.61%.

On to `Cc1ccc(OCC(=O)OC2CN3CCC2CC3)cc1` (stereo not drawn), for which the activation is inactive: 2.83%.

Turning to `Cc1ccc(S(=O)(=O)N(CCCN)CCCc2c(C)nc(N)[nH]c2=O)cc1`, the activation is inactive: -0.05%.

Turning to `O=P1(Nc2ncccn2)COc2ccccc2OC1`, the activation was inactive: 1.09%.

Take `Clc1n[nH]nc1-c1nn[nH][15n]1`: the activation is inactive: 0.63%.

In the case of `O=P1(N(CCCl)CCCl)NCCC(C(F)(F)F)O1` (stereo not drawn), the activation was inactive: -3.66%.

With `CC(C)(C)C(=O)NC(Sc1ncccn1)C(Cl)(Cl)Cl` (stereo not drawn), the activation is inactive: 5.81%.

Consider `CCC1=CC2Cc3nc4ccc(Cl)cc4c(N)c3C(C1)C2` (stereo not drawn), for which the activation was inactive: -52.8%.

Regarding `O=P1(Nc2ccccn2)COc2ccccc2OC1`, the activation was inactive: 0.64%.

With `CCOP(=O)(NC(=NC(C)c1ccccc1)NC(C)c1ccccc1)OCC` (stereo not drawn), the activation is inactive: -7.82%.

For `CN(CCCl)Cc1cc(Cl)c(NC2=NCCN2)c(Cl)c1`, the activation was inactive: 1.56%.

On to `CCOP(=O)(Nc1ccc(C)cn1)OCC`, for which the activation was inactive: 0.85%.

With `CN(C(=O)Cc1ccc(Cl)c(Cl)c1)[C@@H]1CCCC[C@H]1N1CCCC1`, the activation was inactive: -1.59%.

`CC(C)/C=N\N=C(\N)N[N+](=O)[O-]`: the activation is inactive: 3.3%.

`CN(C(=O)Cc1ccc(Cl)c(Cl)c1)C1CCCC[C@@H]1N1CCCC1` (stereo partly drawn): the activation was inactive: -3.64%.

For the molecule `CC1(CBr)Cn2c(nc3ccccc3c2=O)S1` (stereo not drawn), the activation is inactive: 10.1%.

Consider `COc1ccccc1CNC(=O)COC(=O)C(O)(c1ccccc1)c1ccccc1`, for which the activation was inactive: 0.41%.

As to `O=C(O)C(=O)c1ccc(N(CCCl)CCCl)cc1`, the activation is inactive: -1.06%.

On to `O=C(COc1ccccc1)OC1CN2CCC1CC2` (stereo not drawn), for which the activation was inactive: -0.47%.

With `O=C(Nc1ccncc1[N+](=O)[O-])c1ccc([N+](=O)[O-])cc1[N+](=O)[O-]`, the activation is inactive: 1.23%.

Take `COP1(=S)c2c(C)nn(CCC#N)c2N=C(c2ccc(F)cc2)N1C` (stereo not drawn): the activation is inactive: 2.35%.

`COC(=O)C1(C)COP(=O)(N2CCCC2)OC1` (stereo not drawn): the activation is inactive: 2%.

Regarding `CCC(C)N(CC(C)C)C(=S)SC(NC(C)=O)C(Cl)(Cl)Cl` (stereo not drawn), the activation is inactive: -26.9%.

Regarding `O=C(OC1CN2CCC1CC2)c1cccc([N+](=O)[O-])c1` (stereo not drawn), the activation is inactive: 0.77%.

As for `CCOC(=O)c1ccc(NC(=O)C(C)(CCl)SC)cc1` (stereo not drawn), the activation was inactive: 1.76%.

For `COP(=O)(OC)N1CC1c1ccccc1` (stereo not drawn), the activation is inactive: -0.85%.

For the molecule `CCCCOc1ccc(C(=O)NCC2(N3CCCCC3)CCCCC2)cc1OC`, the activation is inactive: 0.2%.

Take `Cc1cc(SC(NC(=O)c2ccccc2)C(Cl)(Cl)Cl)nc(C(C)C)n1` (stereo not drawn): the activation is inactive: 2.64%.

On to `O=C(O)C(O)c1ccc(N(CCCl)CCCl)cc1` (stereo not drawn), for which the activation was inactive: -1.2%.

With `CCOC(=O)Nc1ccc([As](=O)(O)O)c(O)c1`, the activation is inactive: 3.95%.

As for `CC1CCNP(=O)(N(CCCl)CCCl)O1` (stereo not drawn), the activation was inactive: 3.29%.

In the case of `Cc1cc(SC(NC=O)C(Cl)(Cl)Cl)ncn1` (stereo not drawn), the activation was inactive: 2.03%.

Regarding `O=P(Nc1ccccn1)(c1cccc2ccccc12)c1cccc2ccccc12`, the activation was inactive: -12.3%.

With `O=[N+]([O-])c1ccc(Nc2ccc(Oc3ccc([N+](=O)[O-])cc3[N+](=O)[O-])cc2)c([N+](=O)[O-])c1`, the activation is inactive: -1.32%.

In the case of `CCOC(=O)Nc1cccc([As](=O)(O)O)c1`, the activation is inactive: 0.36%.

With `Cc1ccc(OP(=O)(Nc2ccc([N+](=O)[O-])cn2)Oc2ccc(C)cc2)cc1`, the activation was inactive: -1.51%.

On to `[N-]=[N+]=NC1CCCCC1NC(=O)c1cc([N+](=O)[O-])cc([N+](=O)[O-])c1` (stereo not drawn), for which the activation is inactive: -6.61%.

As for `Cc1ccc2nc3c(c(C)c2c1)CC(C(Cl)Cl)S3` (stereo not drawn), the activation was inactive: -1.85%.

Turning to `C[As](=O)(O)c1cccc(C(=O)O)c1`, the activation is inactive: -1.02%.

In the case of `O=[As](O)(c1ccc(O)cc1)c1ccccc1O`, the activation was inactive: -0.54%.

As to `COc1cc(C(=O)NCC2(N3CCOCC3)CCCCC2)ccc1OCC(C)C`, the activation is inactive: 0.66%.

With `O=[N+]([O-])c1ccc(-c2cc([N+](=O)[O-])c(O)c([N+](=O)[O-])c2)cc1`, the activation is inactive: -2.37%.

For `O=C(OC1CN2CCC1CC2)c1cccc2[nH]cnc12` (stereo not drawn), the activation was inactive: -2.15%.

Regarding `CCN(CC)C(=S)SC(NC=O)C(Cl)(Cl)Cl` (stereo not drawn), the activation was inactive: 0.78%.

`CC(C)NC(=O)NP(=O)(Oc1ccccc1)Oc1ccccc1`: the activation was inactive: -1.49%.

In the case of `ClCCSc1nnc(-c2cccnc2)o1`, the activation is inactive: -4.38%.

Regarding `CC(C)c1ccc(OP(=O)(Nc2ccccn2)Oc2ccccc2F)cc1` (stereo not drawn), the activation was inactive: 1.29%.

Take `COC(=O)C1(C)COP(=O)(N2CCCCCC2)OC1` (stereo not drawn): the activation is inactive: 2.19%.

Regarding `O=P1(N(CCCl)CCCl)Nc2ccccc2N1`, the activation is inactive: -2.89%.

Regarding `O=P1(N(CCCl)CCCl)OCCCN1CCCl` (stereo not drawn), the activation is inactive: 1.99%.

With `COc1ccc2nc(NP(=O)(c3ccccc3)c3ccccc3)sc2c1`, the activation was inactive: -15.2%.

Take `COc1cc(I)ccc1[As](=O)(O)O`: the activation is inactive: 0.87%.

As for `Cc1c2c(nc3ccccc13)SC(C(Cl)Cl)C2` (stereo not drawn), the activation was inactive: -1.94%.

Regarding `O=C(OC1CN2CCC1CC2)C12CC3CC(CC(C3)C1)C2` (stereo not drawn), the activation is inactive: 3.2%.

In the case of `Cc1cc(=O)[nH]c(N[N+](=O)[O-])n1`, the activation is inactive: -0.12%.

As for `O=[N+]([O-])c1cc(Oc2ccc([N+](=O)[O-])cc2C(F)(F)F)cc([N+](=O)[O-])c1`, the activation was inactive: -2.8%.

Take `COc1ccc(N/C(=N/P(=O)(N2CCOCC2)N2CCOCC2)N2CCOCC2)cc1`: the activation was inactive: -3.03%.
